This note sets out measurements from ChEMBL document CHEMBL4419169, “Novel Ferroportin Inhibitors” (2018).

Format in all cases: functional
Common to all, as to set-up: scale not given: the % may be the effect or the level left

For test [1], the system named is Mus musculus. Briefly: Disease modifying capacity in mouse model of transfusion-independent beta-thalassemia intermedia assessed as decrease in relative spleen weight at 20 mg/kg, po BID for 46 days relative to control.
The test system of test [2] is Mus musculus. Briefly: Prevention of hyperferremia in iron overloaded beta2-microglobulin deficient female mouse assessed as reduction in serum iron level at 20 mg/kg, po measured after 1 hr relative to control.
For test [3], the system named is Mus musculus. Briefly: Disease modifying capacity in mouse model of transfusion-independent beta-thalassemia intermedia assessed as decrease in serum erythropoietin at 60 mg/kg, po BID for 46 days relative to control.
Test [4] has as its system Mus musculus. Briefly: Disease modifying capacity in mouse model of transfusion-independent beta-thalassemia intermedia assessed as decrease in leukocyte counts level at 60 mg/kg, po BID for 46 days relative to control.

`Cl.Cl.Cl.O=C(NCc1ncccc1F)c1csc(CCNCc2nc3ccccc3[nH]2)n1`: the Activity turned out to be 23% with Mus musculus [1], 35% in the test on Mus musculus [2], 37% with Mus musculus [3] and 36% in the test on Mus musculus [4].
